Compound activity deposited in PubChem by Broad Institute.
CAL PDZ FP-1 – human CAL PDZ-peptide interaction inhibition; Q9HD26; purified CAL PDZ, TMR-peptide fluorescence polarization, 1 h; inhibition, % at 20 µM; hit rate 0.02% among 330,000;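 active = highest replicate inhibition of at least 40%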;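 also: plate controls were DMSO neutral control wells for no effect and unlabeled competitor peptide control wells for full effect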
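System: tagged CAL PDZ domain. Schedule: 1 h room-temperature incubation prior to read. Signal: fluorescence polarization (mP). Measure: percent inhibition from loss of millipolarization.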
CAL PDZ FP-2 – blocks peptide binding to the human CAL PDZ domain. Q9HD26. purified CAL PDZ, TMR-peptide fluorescence polarization, 1 h. inhibition, % at 24.9 µM. hit rate 0.92% among 300,000;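 active = mean inhibition of at least 30% with at least half of replicates also reaching 30%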;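 also: 0% = DMSO neutral control and 100% = excess unlabeled competitor peptide PRC23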
ARNT-TACC3 inh – disrupts binding between human ARNT and TACC3; Q9Y6A5; AlphaScreen His-ARNT PAS-B/GST-TACC3 binding, luminescence; TACC3 fragment carries E629A point mutation; inhibition, % at 9.99 µM; hit rate 0.66% among 390,000;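 active = mean inhibition of replicates at least 50% and at least half of replicates each reaching 50%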;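 also: 0% = complete ARNT plus TACC3 wells and 100% = ARNT alone without TACC3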
PglD DTNB – blocks C. jejuni PglD acetyltransferase activity. purified PglD enzyme, DTNB colorimetric CoA detection. inhibition, % at 12.5 µM. hit rate 0.098% among 360,000; in the data active = inhibition above about 16%, passing the limit was not always enough
UUG fidelity – modulators of start codon recognition fidelity in yeast; AID 602363; activity score, % at 18.7 µM; S. cerevisiae UUG-firefly luciferase reporter, luminescence/redox ratio; actives 0.13% (n = 350,000);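 active = replicate mean at a twofold rise or more, about +100% in these data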;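 note: firefly luciferase made from a UUG start codon reports start codon fidelity; reporter light over untreated wells divided by growth signal over untreated wells; some hits fall short of that in this replicate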
Vif inh – blocks HIV Vif function. HEK293T cells, Vif self-association by quenched fluorescence, imaging, 24 h. inhibition, % at 7.49 µM. hit rate 0.35% among 340,000. AID 602346; in the data active = inhibition above about 50%, passing the limit was not always enough
Active calls of the source: *; · = no result. Sampled rows, rich in hits. Any-hit rate of the full collection: about 1.6%.

mol	CAL PDZ FP-1	CAL PDZ FP-2	ARNT-TACC3 inh	PglD DTNB	UUG fidelity	Vif inh
COc1ccc(NC(=O)N[C@@H]2CC[C@@H](CCn3cc(-c4ccccn4)nn3)O[C@H]2CO)cc1	·	·	61.4*	-0.9	-18.8	·
O=C(NCC[C@@H]1CC[C@H](NS(=O)(=O)c2cccc(Cl)c2)[C@H](CO)O1)c1cnccn1	·	·	-31.2	3.7	10.5	·
C[C@@H]1CN([C@@H](C)CO)C(=O)c2cc(NC(=O)Nc3ccc4c(c3)OCO4)ccc2O[C@H]1CN(C)Cc1ccncc1	·	·	-1.9	7.8	·	·
CN1C(=O)c2cc(NC(=O)c3ccc(C(F)(F)F)cc3)ccc2OC[C@H]2O[C@H](CC(=O)O)CC[C@@H]21	·	·	14.3	0.7	-1.0	·
COc1cccc(C(=O)Nc2cc(C(=O)NCc3ccc(C)cc3)ccc2N2CCC3(CC2)CC(c2ccccc2)=NO3)c1	-0.3	-10.4	-3.4	-1.7	-9.2	1.0
Cc1ccc(CNC(=O)c2ccc(N3CCC4(CC3)CC(c3ccccc3)=NO4)c(NC(=O)c3c(Cl)cccc3Cl)c2)cc1	0.9	50.5*	-6.4	-4.3	-14.1	·
O=C(C[n+]1ccccc1)N/N=C/c1cc(Br)cc(Br)c1O	·	-2.9	64.2*	-2.0	-26.5	4.7
O=C(NCc1ccc(F)cc1)c1cc(C2CCCCN2C(=O)OCCF)on1 (stereo not drawn)	·	·	·	1.0	2.9	66.7*
COC(=O)N1CCCCC1c1cc(C(=O)NCc2ccc(F)cc2)no1 (stereo not drawn)	·	·	·	3.6	-7.7	2.1
NC(=N\N=Cc1ccco1)/C(N)=N/N=Cc1ccco1	-3.0	-1.1	62.8*	1.7	-21.7	4.2
C[C@@H]1CCCCO[C@@H](CN(C)S(=O)(=O)c2cccs2)[C@H](C)CN([C@@H](C)CO)C(=O)c2cc(NS(=O)(=O)c3cccs3)ccc2O1	·	·	-6.1	-2.7	-6.5	·
C[C@@H]1CCCCO[C@H](CN(C)C(=O)Nc2ccc3c(c2)OCO3)[C@@H](C)CN([C@H](C)CO)C(=O)c2cc(NC(=O)NC3CCCCC3)ccc2O1	·	·	-2.5	0.9	-9.4	·
C[C@@H]1CN([C@@H](C)CO)C(=O)c2cc(NC(=O)Cc3ccccc3)ccc2O[C@@H](C)CCCCO[C@@H]1CN(C)S(=O)(=O)c1cccs1	·	·	-0.2	0.1	-7.7	·
O=C(CCn1cnnn1)Nc1ccc(Cl)cc1Cl	-1.2	86.4*	-5.9	·	·	2.3
COc1ccccc1CNC(=O)COC(=O)c1cccnc1SCC(=O)NCc1ccccc1OC	-5.8	83.3*	-2.5	0.1	-15.1	1.3
Cc1nc2c(=O)[nH]c(=S)[nH]c2[nH]c1=O	-3.0	1.1	34.7*	7.4	7.3	-1.9
Cc1nc2[nH]c(=S)[nH]c(=O)c2nc1C	0.8	6.4	-4.4	-8.1	-2.3	11.7
C[C@@H]1CN([C@H](C)CO)C(=O)c2c(c3ccccc3n2C)-c2ccccc2CO[C@@H]1CN(C)C(=O)Nc1ccc(F)cc1	·	·	-1.0	1.7	·	·
CCC(=O)Nc1ccc2c(c1)OC[C@@H](C)N(Cc1nccs1)C[C@@H](C)[C@@H](OC)CN(C)C2=O	·	·	-1.1	-2.0	·	·
CN1CCN(C(=O)c2cc3c(c(-c4cccc(-c5ccccc5F)c4)n2)[C@H](CCO)N([S@@](=O)C(C)(C)C)C3)CC1	·	·	11.7	7.4	·	·
CC(C)(C)[C@H]1COC(=O)CCCC/C=C\C[C@H](CC(=O)N(CCO)Cc2ccccc2)C(=O)N1	-0.7	105.9*	1.4	-3.6	-4.9	28.5
CC(CCc1ccccn1)C(=O)c1ccccc1 (stereo not drawn)	-0.6	-3.2	-1.7	0.3	·	18.5
O=C(c1ccccc1)C(CCc1ccccn1)CCc1ccccn1	24.0	46.6*	0.7	5.1	-13.9	16.0
O=C(CSc1nc(-c2ccccc2)c(-c2ccccc2)o1)N1CCOCC1	-2.4	-1.4	42.6	-5.9	111.3*	10.8
O=C(CSc1nc(-c2ccccc2)cc(C(F)(F)F)n1)N1CCOCC1	-1.5	96.3*	-23.8	1.1	-18.6	-3.1
COc1ccc(-c2cc(C(F)(F)F)nc(SCC(=O)N3CCOCC3)n2)cc1OC	-1.4	·	-4.1	-8.9	-5.6	·
CC=Cc1ccc2n(c1=O)C[C@H]1[C@H](CO)[C@@H](C(=O)NCCC)[C@@H]2N1C(=O)c1ccccc1F (mixture of isomers)	·	·	-1.8	0.5	·	·
COc1ccc(CN(C)C[C@@H]2Oc3c(NS(C)(=O)=O)cccc3C(=O)N([C@@H](C)CO)C[C@H]2C)cc1	·	·	8.2	0.8	·	·
C[C@@H]1CN([C@@H](C)CO)C(=O)Cc2cc(NS(=O)(=O)c3ccc(F)cc3)ccc2O[C@@H]1CN(C)Cc1ccc(Oc2ccccc2)cc1	·	·	-10.6	0.7	8.0	·
COc1c2ccoc2nc2c(OC)c(OCC(O)C(C)(C)O)ccc12 (stereo not drawn)	-0.4	·	-6.5	0.8	-9.1	·

The closing five entries of the section before open the next one.
mol	CAL PDZ FP-1	CAL PDZ FP-2	ARNT-TACC3 inh	PglD DTNB	UUG fidelity	Vif inh
COc1ccc(-c2cc(C(F)(F)F)nc(SCC(=O)N3CCOCC3)n2)cc1OC	-1.4	·	-4.1	-8.9	-5.6	·
CC=Cc1ccc2n(c1=O)C[C@H]1[C@H](CO)[C@@H](C(=O)NCCC)[C@@H]2N1C(=O)c1ccccc1F (mixture of isomers)	·	·	-1.8	0.5	·	·
COc1ccc(CN(C)C[C@@H]2Oc3c(NS(C)(=O)=O)cccc3C(=O)N([C@@H](C)CO)C[C@H]2C)cc1	·	·	8.2	0.8	·	·
C[C@@H]1CN([C@@H](C)CO)C(=O)Cc2cc(NS(=O)(=O)c3ccc(F)cc3)ccc2O[C@@H]1CN(C)Cc1ccc(Oc2ccccc2)cc1	·	·	-10.6	0.7	8.0	·
COc1c2ccoc2nc2c(OC)c(OCC(O)C(C)(C)O)ccc12 (stereo not drawn)	-0.4	·	-6.5	0.8	-9.1	·
COc1c2ccoc2nc2c(OC)c(OC[C@@H](O)C(C)(C)O)ccc12	-0.9	-6.6	·	0.8	0.8	56.8*
O=C(C=Cc1ccc2c(c1)OCO2)OCC=Cc1ccc2c(c1)OCO2	0.6	53.5*	1.4	-1.7	-3.6	7.1
O=c1cnnc(N/N=C/C2CC=CCC2)[nH]1 (stereo not drawn)	-0.7	3.6	65.1*	3.4	-7.2	-1.3
COc1cccc(/C=N/NC(=O)C(C)n2nc(C)c([N+](=O)[O-])c2C)c1O (stereo not drawn)	-1.2	-2.1	87.5*	·	·	8.1
COc1cccc(/C=N/NC(=O)Cn2nc(C)c([N+](=O)[O-])c2C)c1O	-1.7	-0.2	65.1*	-1.9	-6.7	4.1
CC=Cc1ccc2n(c1=O)C[C@@H]1[C@@H](CO)[C@H](C(=O)NCc3ccccc3)N(CCC(F)(F)F)[C@H]21 (mixture of isomers)	·	·	10.9	-1.9	·	·
Cc1cccc(OCCCn2c(CO)nc3ccccc32)c1	·	88.7*	-2.9	-2.3	-26.6	-4.0
Cc1ccc(OCCCn2c(CO)nc3ccccc32)cc1	-1.5	4.7	-1.2	-2.9	-14.6	-11.1
O=C(O)c1cccc(Cn2c(Cl)c(/C=N/NC(=O)c3cc4ccccc4cc3O)sc2=O)c1	·	46.7*	16.0	-0.3	-15.2	-0.7
O=C(O)c1cccc(Cn2c(Cl)c(/C=N/NC(=O)c3ccccc3)sc2=O)c1	-1.7	-1.9	·	10.5	-15.7	4.0
O=C(O)c1ccc(/C=N/NC(=O)c2cc3ccccc3cc2O)cc1	-1.3	45.8*	8.5	1.8	-4.6	-2.3
C[C@@H]1CN([C@H](C)CO)C(=O)Cc2cc(NC(=O)NC3CCCCC3)ccc2O[C@@H]1CN(C)C(=O)NC1CCCCC1	·	·	-9.4	6.5	-1.5	·
CO[C@H]1CC[C@H]2CCOc3c(C#N)cccc3C(=O)N(C)CCCC(=O)N(C)C[C@H]1O2	·	·	-2.1	1.1	·	·
COc1ccc(S(=O)(=O)NC2(C(F)(F)F)NC(=O)N(CCc3ccccc3)C2=O)cc1 (stereo not drawn)	-2.7	-2.5	1.4	-1.2	7.2	55.1*
